{"source": "patent US20090181369A1", "about": "“Methods for the Treatment of Disease” (priority 2005, published 2009)", "key": {"FTase, β subunit P152S": {"target": "FTase, β subunit P152S (Homo sapiens, UniProt P49356, P152S)"}, "[1]": {"target": "FTase, wild-type β subunit (Homo sapiens, UniProt P49356)", "details": "read-out: Molecular IC50, HDJ2 farnesylation, 48 hours"}, "FTase, β subunit V242I": {"target": "FTase, β subunit V242I (Homo sapiens, UniProt P49356, V242I)"}, "FTase, β subunit W106R": {"target": "FTase, β subunit W106R (Homo sapiens, UniProt P49356, W106R)"}, "FTase, β subunit C95R": {"target": "FTase, β subunit C95R (Homo sapiens, UniProt P49356, C95R)", "details": "read-out: molecular IC50, HDJ2 farnesylation"}, "FTase, β subunit G241E": {"target": "FTase, β subunit G241E (Homo sapiens, UniProt P49356, G241E)", "details": "read-out: molecular IC50, HDJ2 farnesylation"}, "[2]": {"details": "read-out: Molecular IC50, HDJ2 farnesylation, 48 hours"}, "[3]": {"details": "read-out: Molecular IC50, HDJ2 farnesylation, 48 hours, listed as lonafarnib"}}, "note": "Where two headings read alike, the source gives them in different places.", "data": [{"smiles": "NC(=O)N1CCC(CC(=O)N2CCC([C@H]3c4ncc(Br)cc4CCc4cc(Cl)cc(Br)c43)CC2)CC1", "note": "[Lonafarnib, (+)-4-[2-[4-(8-Chloro-3,10-dibromo-6,11-dihydro-5H-benzo[5,6]cyclohepta[1,2-b]-pyridin-11(R)-yl)-1-piperidinyl]-2-oxo-ethyl]-1-piperidinecarboxamide]", "values": [{"measurement": "IC50", "setting": "FTase, β subunit P152S; [2]", "value": 1400, "unit": "nM"}, {"measurement": "IC50", "setting": "FTase, β subunit P152S; [3]", "value": "< 2500", "unit": "nM"}, {"measurement": "IC50", "setting": "[1]", "value": 800, "unit": "nM"}, {"measurement": "IC50", "setting": "FTase, β subunit V242I; [2]", "value": 1300, "unit": "nM"}, {"measurement": "IC50", "setting": "FTase, β subunit V242I; [3]", "value": "< 2500", "unit": "nM"}, {"measurement": "IC50", "setting": "FTase, β subunit W106R; [2]", "value": "> 10000", "unit": "nM"}, {"measurement": "IC50", "setting": "FTase, β subunit W106R; [3]", "value": "> 2500", "unit": "nM"}, {"measurement": "IC50", "setting": "FTase, β subunit C95R", "value": "> 2500", "unit": "nM"}, {"measurement": "IC50", "setting": "FTase, β subunit G241E", "value": "> 2500", "unit": "nM"}]}]}
